Among the data in patent US9296745B2, “Diacylglycerol acyltransferase 2 inhibitors” (Pfizer Inc., priority 2012, dated 2016) are IC50 values, retold here.

Chains of the proteins cited; added tags and fusions are not shown. Lines headed by an entry give the natural chain unless they say otherwise; changes in a name come on top.
UniProt Q96PD7: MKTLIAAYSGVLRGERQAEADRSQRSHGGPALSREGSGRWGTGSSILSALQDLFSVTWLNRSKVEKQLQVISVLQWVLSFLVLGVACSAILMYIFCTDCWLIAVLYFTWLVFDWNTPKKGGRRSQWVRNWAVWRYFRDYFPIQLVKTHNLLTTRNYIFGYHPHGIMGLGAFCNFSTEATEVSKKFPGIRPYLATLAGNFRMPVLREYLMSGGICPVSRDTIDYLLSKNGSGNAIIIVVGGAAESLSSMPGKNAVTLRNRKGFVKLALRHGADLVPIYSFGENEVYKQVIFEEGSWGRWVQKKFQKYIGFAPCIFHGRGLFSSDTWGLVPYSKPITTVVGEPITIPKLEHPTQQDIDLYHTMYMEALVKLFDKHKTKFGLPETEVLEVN

For this experiment, the target named is Human DGAT2 (hDGAT2) (Homo sapiens (Human), UniProt Q96PD7). Nature of the experiment: In vitro DGAT2 assay, IC50 determination with hDGAT2 membrane fraction. The class given is biochemical. Particulars: geometric mean; background for complete inhibition of DGAT2 obtained with 50 μM (1R,2R)-2-({3′-Fluoro-4′-[(6-fluoro-1,3-benzothiazol-2-yl)amino]-1,1′-biphenyl-4-yl}carbonyl)cyclopentanecarboxylic acid. As for the experimental part: Recombinant baculovirus for the FLAG-tagged hDGAT2 was generated in SF9 insect cells using Bac-to-Bac baculovirus expression system (Invitrogen) according to the manufacturer's protocol. For the expression of hDGAT2, SF9 cells (20 L) grown in Sf900II media were infected with hDGAT2 baculovirus at a multiplicity of infection of 1 in a Wave Bioreactor System 20/50P wave bag (GE Healthcare). After 40 hours of infection, the cells were then harvested by centrifugation at 5,000×g. The cell pellets were washed by resuspending in phosphate buffered saline (PBS) and collected by centrifugation at 5,000×g. The cell paste was flash frozen in liquid N2 and stored at −80° C. until needed. All operations below were at 4° C. unless otherwise noted. […]
To 1 μL of compounds dissolved in 100% DMSO and spotted at the bottom of each well, 5 μL of 0.04% bovine serum albumin (BSA) (fatty acid free, Sigma Aldrich) was added and the mixture was incubated at room temperature for 20 minutes. […] Plates were centrifuged at 2,000×g for 1 min in an Allegra 6R Centrifuge (Beckman Coulter) and then were sealed again with fresh covers before reading in a 1450 Microbeta Wallac Trilux Scintillation Counter (Perkin Elmer). DGAT2 activity was measured by quantifying the generated product [^14C]tridecanoylglycerol in the upper organic phase. […]

For orientation: IC50 means the concentration needed to halve the response being measured. Lower therefore signals higher potency. For the compound `O=C([C@@H]1CCCN(c2ccc3nc(C4(Cc5ccccc5)CC4)[nH]c3n2)C1)N1CCCC1` [Example 83, (R)-(1-(2-(1-Benzylcyclopropyl)-3H-imidazo[4,5-b]pyridin-5-yl)piperidin-3-yl)(pyrrolidin-1-yl)methanone], the IC50 was determined as 0.128 µM.
`C[C@H](c1nc2ccc(N3CCC[C@@H](C(=O)N4CCCC4)C3)nc2[nH]1)n1cc(F)cn1` [Example 192, ((R)-1-(2-((R)-1-(4-Fluoro-1H-pyrazol-1-yl)ethyl)-3H-imidazo[4,5-b]pyridin-5-yl)piperidin-3-yl)(pyrrolidin-1-yl)methanone] yielded an IC50 of 0.0886 µM.
